In publication PMC10165273, “Itch receptor MRGPRX4 interacts with the receptor activity–modifying proteins” (The Journal of Biological Chemistry, 2023):
Several values for one entry are separate records, joined by “and”; a condition that tells them apart may be missing. Equal entries are not always repeated.

Test system: mock-transfected HEK293T cells
Experiment: IP1 accumulation, mock-transfected cells
Format: cell-based, human
Set-up: IP1 Basal / IP1 Emax / IP1 span: unit not given here
Details: for IP1 Basal / IP1 Emax / IP1 span: Mock; for normalized IP1 accumulation: mock
[1] = HA-CALCRL-1D4 series (Fig. S4J-L)
[2] = HA-CALCRL-GFP10-1D4 series (Fig. S4G-I)

CC(C)C[C@H](NC(=O)CNC(=O)[C@H](C)NC(=O)[C@H](CC(C)C)NC(=O)[C@H](CCCNC(=N)N)NC(=O)[C@H](Cc1c[nH]cn1)NC(=O)[C@@H](NC(=O)[C@@H](NC(=O)[C@@H]1CSSC[C@H](NC(=O)[C@H](C)N)C(=O)N[C@@H](CC(=O)O)C(=O)N[C@@H]([C@@H](C)O)C(=O)N[C@@H](C)C(=O)N[C@@H]([C@@H](C)O)C(=O)N1)C(C)C)[C@@H](C)O)C(=O)N[C@@H](CC(C)C)C(=O)N[C@@H](CO)C(=O)N[C@@H](CCCNC(=N)N)C(=O)N[C@@H](CO)C(=O)NCC(=O)NCC(=O)N[C@H](C(=O)N[C@H](C(=O)N[C@@H](CCCCN)C(=O)N[C@@H](CC(N)=O)C(=O)N[C@@H](CC(N)=O)C(=O)N[C@@H](Cc1ccccc1)C(=O)N[C@H](C(=O)N1CCC[C@H]1C(=O)N[C@H](C(=O)N[C@@H](CC(N)=O)C(=O)N[C@H](C(=O)NCC(=O)N[C@@H](CO)C(=O)N[C@@H](CCCCN)C(=O)N[C@@H](C)C(=O)N[C@@H](Cc1ccccc1)C(N)=O)C(C)C)[C@@H](C)O)C(C)C)C(C)C)C(C)C [CGRP, calcitonin gene-related peptide]
IP1 Basal [1]: Unstable
IP1 Emax [1]: -0.8959
IP1 span [1]: Unstable
IP1 Basal [2]: 0.4062
IP1 Emax [2]: 1.291
IP1 span [2]: 0.8853
normalized IP1 accumulation (log [agonist] (M) -10): 0.9393 and 0.5823 and 0.6814
normalized IP1 accumulation (log [agonist] (M) -11.5229): 0.2933
